Reference: patent US9872861B2, “Methods of treatment using selective Bcl-2 inhibitors” (AbbVie Inc., priority 2010, dated 2018)

Sequences of proteins named here, by UniProt entry; tags and fusion partners are left off.
UniProt P10415, whole entry: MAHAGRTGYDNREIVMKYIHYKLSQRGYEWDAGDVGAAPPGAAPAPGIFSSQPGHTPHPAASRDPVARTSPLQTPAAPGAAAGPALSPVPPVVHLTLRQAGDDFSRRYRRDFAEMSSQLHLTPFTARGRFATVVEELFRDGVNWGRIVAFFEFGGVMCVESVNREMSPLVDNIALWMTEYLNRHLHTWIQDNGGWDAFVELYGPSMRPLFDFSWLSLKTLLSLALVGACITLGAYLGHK

Target: Bcl-2 (Homo sapiens, UniProt P10415)
Test: TR FRET competitive binding affinity, Bcl-2
Conditions: read-out: Target Affinity TR FRET, Bcl-2
Experimental: A comparison of the binding affinity for each of the compounds was performed to determine target affinity, as measured by Time-Resolved Fluorescence Resonance Energy Transfer (TR FRET).

`CC1(C)CCC(c2ccc(Cl)cc2)=C(CN2CCN(c3ccc(C(=O)NS(=O)(=O)c4ccc(N[C@H](CCN5CCOCC5)CSc5ccccc5)c(S(=O)(=O)C(F)(F)F)c4)cc3)CC2)C1` [Compound 2, N-(4-(4-((2-(4-chlorophenyl)-5,5-dimethyl-1-cyclohex-1-en-1-yl)methyl)piperazin-1-yl)benzoyl)-4-(((1R)-3-(morpholin-4-yl)-1-((phenylsulfanyl)methyl)propyl)amino)-3-((trifluoromethyl)sulfonyl)benzenesulfonamide, reference compound] gave a Ki of 0.04 nM.
